Results: patent US10722484B2, “Methods of cancer treatment” (K-Gen, Inc., priority 2016, dated 2020)

Tested on: colon cancer cell line Colo205
Experiment: MacSynergy combination experiments
Format: cell-based
Experimental: A 96-well MacSynergy II format for combination test was also used. […] The analysis was done with the SQRT(Data) scale and the four parameter Hill curve was fitted using XLfit5.1 (the MacSynergy II Excel Spreadsheet) for the inhibition data. Synergy (positive number) or Antagonism (negative number) volumes were calculated. […] Three-dimensional MacSynergy II graphs were generated where positive values indicated synergism and negative values indicated antagonism.

O=C1[O][Pt]2([NH][C@@H]3CCCC[C@H]3[NH]2)[O]C1=O [Oxaliplatin]
synergy volume (MacSynergy) (Colo205, in combination with K101A (column not headed)): 11 | synergy volume (MacSynergy) (Colo205, in combination with K102 (column not headed)): 25
